#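 Five concentrations, 48 hours, 96-well plates. Definition used: TGI = concentration required for complete inhibition of growth.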
# Assays:
# Test in all cases: inhibition of tumour cell growth, NCI panel, 48 h
# [1] = tested on: SNB-19 CNS
# [2] = tested on: MDA-N
# [3] = tested on: K-562 leukemia
# [4] = tested on: A549 NSCLC
# [5] = tested on: HT29 colon
# [6] = tested on: SN12C renal
# [7] = tested on: UACC-257 melanoma
# [8] = tested on: MCF7 breast
# [9] = tested on: PC-3 prostate
# [10] = tested on: U251 CNS
# [11] = tested on: RXF 393 renal
# [12] = tested on: NCI-H23 lung
# [13] = tested on: SK-MEL-2 melanoma
# [14] = tested on: HS 578T breast
# [15] = tested on: SF-268 CNS
# [16] = tested on: 786-0 renal
# [17] = tested on: TK-10 renal
# [18] = tested on: M14 melanoma
# [19] = tested on: KM12 colon
# [20] = tested on: NCI-H322M lung
# [21] = tested on: OVCAR-5 ovarian
# [22] = tested on: BT-549 breast
# [23] = tested on: CCRF-CEM leukemia
# [24] = tested on: NCI-H460 lung
# [25] = tested on: UACC-62 melanoma
# [26] = tested on: MOLT-4 leukemia
# [27] = tested on: SW-620 colon
# [28] = tested on: NCI/ADR-RES ovarian
# [29] = tested on: MDA-MB-231 breast
# [30] = tested on: MALME-3M melanoma
# [31] = tested on: UO-31 renal
# [32] = tested on: ACHN renal
# [33] = tested on: SR leukemia
# [34] = tested on: EKVX NSCLC
# [35] = tested on: HCT-116 colon
# [36] = tested on: HL-60(TB) leukemia
# [37] = tested on: T-47D breast
# [38] = tested on: RPMI-8226 leukemia
# [39] = tested on: A498 renal
# [40] = tested on: SK-MEL-28 melanoma
# [41] = tested on: HCC-2998 colon
compound,measurement,setting,value
CN(C(=O)Cc1ccc(Cl)cc1Cl)[C@@H]1CCCC[C@@H]1N1CCCC1,TGI,[1],> 100 µM
same,TGI,[2],> 100 µM
same,TGI,[3],> 100 µM
same,TGI,[4],> 100 µM
same,TGI,[5],> 100 µM
same,TGI,[6],> 100 µM
same,TGI,[7],> 100 µM
same,TGI,[8],> 100 µM
same,TGI,[9],> 100 µM
same,TGI,[10],> 100 µM
same,TGI,[11],> 100 µM
same,TGI,[12],> 100 µM
same,TGI,[13],> 100 µM
same,TGI,[14],> 100 µM
same,TGI,[15],> 100 µM
same,TGI,[16],> 100 µM
same,TGI,[17],> 100 µM
same,TGI,[18],39.3 µM
same,TGI,[19],> 100 µM
same,TGI,[20],> 100 µM
same,TGI,[21],> 100 µM
same,TGI,[22],> 100 µM
same,TGI,[23],> 100 µM
same,TGI,[24],> 100 µM
same,TGI,[25],> 100 µM
same,TGI,[26],78 µM
same,TGI,[27],> 100 µM
same,TGI,[28],> 100 µM
same,TGI,[29],> 100 µM
same,TGI,[30],> 100 µM
same,TGI,[31],> 100 µM
same,TGI,[32],> 100 µM
same,TGI,[33],> 100 µM
same,TGI,[34],> 100 µM
same,TGI,[35],> 100 µM
same,TGI,[36],> 100 µM
same,TGI,[37],> 100 µM
same,TGI,[38],> 100 µM
same,TGI,[39],99.9 µM
same,TGI,[40],> 100 µM
same,TGI,[41],> 100 µM

# From PubChem BioAssay (NCI)
